In ChEMBL document CHEMBL4513216, “Probing the Open Global Health Chemical Diversity Library for Multistage-Active Starting Points for Next-Generation Antimalarials” (ACS Infect Dis, 2020) one finds INHIBITION data, which are given here for 10 molecules.

The data set concerns HepG2. The experiment in a line: Toxicity liver stage against HepG2, at 10uM. The format is cell-based. More on the design: test concentration 10 uM, cell line HepG2-A16-CD81EGFP. The note with it: human, hepg2, 10 µM. The essentials:
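Uninfected HepG2-A16-CD81EGFP cells, 3 × 10^3 per well, 1536-well, plated on prespotted compound at 10 μM final, parasite-free screening media added to match infected plates; puromycin 10 μM positive, DMSO 0.5% negative; run in parallel with 48 h PbLuc assay at 37 °C, 5% CO2; viability by CellTiter-Glo luminescence, normalized to controls.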

Molecules are shown by their SMILES. This is a selection: effects in other tests are not listed, and their absence says nothing.

On to `COc1cccc(NC2CCNCC2)c1`, for which the INHIBITION is -3.35%.
As for `COc1ccccc1NC1CCN(Cc2nc(C)ccc2O)CC1`, the figure is 0.719%; as for `COc1cc(NC2CCNCC2)cc(OC)c1`, -5.3%.
Consider `Brc1ccccc1NC1CCNCC1`, for which the INHIBITION is -2.33%.
As for `Cc1cccc(NC2CCN(Cc3nnc(C4CC4)o3)CC2)c1`, the figure is -8.37%; as for `Cc1nnc(C(C)N2CCC(Nc3ccccc3C)CC2)o1` (stereo not given), 3.96%; as for `COc1ccc(CN2CCC(Nc3ccc(Br)cc3)CC2)c(OC)c1`, 2.31%.
As for `CCCN1CCC(Nc2ccc(OC)c(OC)c2)CC1`, the figure is 0.124%; as for `Fc1ccccc1NC1CCNCC1`, -5.6%.
With `CC1(C)CN(C2(CNC(=O)c3cnns3)CCCCC2)CCO1` the figure was 19.5%.
